The test deals with T1, Prostaglandin G/H synthase 2 (Mus musculus, UniProt Q05769).
T1 sequence (Q05769 whole entry): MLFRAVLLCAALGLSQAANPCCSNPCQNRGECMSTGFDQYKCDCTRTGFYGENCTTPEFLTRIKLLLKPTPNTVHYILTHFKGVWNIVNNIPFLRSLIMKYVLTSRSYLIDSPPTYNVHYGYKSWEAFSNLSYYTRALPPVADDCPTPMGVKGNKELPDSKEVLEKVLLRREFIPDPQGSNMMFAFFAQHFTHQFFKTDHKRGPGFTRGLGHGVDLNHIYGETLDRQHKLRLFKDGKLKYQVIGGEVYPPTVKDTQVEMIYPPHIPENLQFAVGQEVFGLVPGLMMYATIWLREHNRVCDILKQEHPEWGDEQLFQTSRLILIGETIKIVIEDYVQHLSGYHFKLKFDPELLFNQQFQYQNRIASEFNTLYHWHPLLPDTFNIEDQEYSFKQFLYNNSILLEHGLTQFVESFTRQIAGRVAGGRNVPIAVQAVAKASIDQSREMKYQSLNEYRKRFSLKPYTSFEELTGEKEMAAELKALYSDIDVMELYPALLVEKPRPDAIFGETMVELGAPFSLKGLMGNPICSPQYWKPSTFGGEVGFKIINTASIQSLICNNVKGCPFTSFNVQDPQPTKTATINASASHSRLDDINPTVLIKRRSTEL
In words: Inhibitory activity against Prostaglandin G/H synthase 2 from freshly harvested mouse peritoneal macrophages.

As to `CS(=O)(=O)c1ccc(-c2occ(Cl)c(=O)c2-c2ccc(F)cc2)cc1`, the half-maximal inhibitory concentration (IC50) (in general, the point on the concentration scale where inhibition reaches its midpoint) was 1480 nM.
In the case of `CS(=O)(=O)c1ccc(-c2occ(Cl)c(=O)c2-c2ccc(Cl)cc2)cc1`, the IC50 was 936 nM.

(Values after ChEMBL document CHEMBL1147555, “2,3-diarylpyran-4-ones: a new series of selective cyclooxygenase-2 inhibitors” (Bioorg Med Chem Lett, 2004).)
